# Test results as given in patent publication US20220193256A1, “NANO-ANTIBIOTICS BASED ON SINGLE-CHAIN DEXTRAN NANOPARTICLES” (priority 2019, published 2022).
# How the values were obtained:
# [1] = tested on: K. pneumoniae ATCC BAA-2146; assay: MIC, antimicrobial susceptibility test (CLSI M07-A10); assay type: cell-based; conditions: replicates 1 and 2, as tobramycin concentration
# Protocol: (§1) All test and quality control strains were recovered from frozen storage (−80° C.) and cultured at 35±2° C. for 18-24 h.
# (§2) All test articles were dissolved in sterile ultra-pure water at a concentration of 2.56 mg/mL. […] 100 and 200 μL of drug-free medium was added to positive and negative control wells, respectively. Suspensions equivalent to a McFarland 0.5 standard were prepared for each test strain in 5 mL sterile phosphate-buffered saline (PBS) and further diluted 1:150 in CA-MHB to provide an inoculum of 2-8×10^5 CFU/mL. 100 μL of each inoculum was dispensed into all wells—except negative control wells (100 μL sterile water added)—to provide an inoculum of ˜5×10^5 CFU/well and a final volume of 200 μL per well. Assay plates were incubated according to CLSI M07-A10 guidelines of 35±2° C. for 16-20 h in air.
# E. coli ATCC BAA-2469 = assay: as above; assay type: cell-based; conditions: replicates 1 and 2, as tobramycin concentration
# Protocol: as §1, §2
smiles,measurement,setting,value
"NC[C@H]1O[C@H](O[C@H]2[C@H](O)[C@@H](O[C@H]3O[C@H](CO)[C@@H](O)[C@H](N)[C@H]3O)[C@H](N)C[C@@H]2N)[C@H](N)C[C@@H]1O [Tobramycin, tobramycin]",Test Article MIC,[1],>128 µg/mL
same,Test Article MIC,E. coli ATCC BAA-2469,>128 µg/mL
